The values below are quoted from earlier work in article PMC11181486, “Nonsymmetrically Substituted 1,1′-Biphenyl-Based Small Molecule Inhibitors of the PD-1/PD-L1 Interaction” (ACS Medicinal Chemistry Letters, 2024).

The target in data set [1] is PD-1/PD-L1 (Homo sapiens, UniProt Q9NZQ7). As to conditions: cited from earlier work.
Data set [2] deals with PD-L1. As to conditions: cited from earlier work.

Like-named read-outs stand apart in the source and are kept apart here.

On to `COc1nc(-c2cccc(-c3cccc(-n4cc5cc(CN6CC[C@@H](C(=O)O)C6)cnc5n4)c3Cl)c2Cl)cc(C)c1CNC[C@@H]1CCC(=O)N1`, for which the EC50 in data set [1] (Figure S2B, source not printed beside the compound) is < 100 nM. The IC50 in data set [2] was < 10 nM. As to `COc1cc(-c2cccc(-c3ccc4c(c3)OCCO4)c2Cl)ccc1CNC(CO)(CO)CO`, in data set [1] (Figure S1, ref Muszak et al.), the concentration for a half-maximal effect (EC50) is 1020 nM.

What is called EC50 is the concentration needed to bring the measured effect to its halfway point. A word on the IC50: it is the concentration that gives 50% inhibition.
